{
  "source": "patent US8183046B2",
  "about": "“Temperature resistant pH buffers for use at low temperatures” (The Board of Trustees of the University of Illinois, priority 2007, dated 2012)",
  "origin": "cited, not measured here",
  "conditions": "Table 2; buffer without pK index; cited from earlier work",
  "data": [
    {"smiles": "OCCN(CCO)CCO", "values": [
      {"measurement": "Effective pH Range", "value": "7.0–8.3"}
    ]}
  ]
}
